Results reported in ChEMBL document CHEMBL1143172, “Profiling Protein Arginine Deiminase 4 (PAD4): a novel screen to identify PAD4 inhibitors” (Bioorg Med Chem, 2008).

Chains of the proteins cited; added tags and fusions are not shown.
UniProt Q9UM07, whole entry: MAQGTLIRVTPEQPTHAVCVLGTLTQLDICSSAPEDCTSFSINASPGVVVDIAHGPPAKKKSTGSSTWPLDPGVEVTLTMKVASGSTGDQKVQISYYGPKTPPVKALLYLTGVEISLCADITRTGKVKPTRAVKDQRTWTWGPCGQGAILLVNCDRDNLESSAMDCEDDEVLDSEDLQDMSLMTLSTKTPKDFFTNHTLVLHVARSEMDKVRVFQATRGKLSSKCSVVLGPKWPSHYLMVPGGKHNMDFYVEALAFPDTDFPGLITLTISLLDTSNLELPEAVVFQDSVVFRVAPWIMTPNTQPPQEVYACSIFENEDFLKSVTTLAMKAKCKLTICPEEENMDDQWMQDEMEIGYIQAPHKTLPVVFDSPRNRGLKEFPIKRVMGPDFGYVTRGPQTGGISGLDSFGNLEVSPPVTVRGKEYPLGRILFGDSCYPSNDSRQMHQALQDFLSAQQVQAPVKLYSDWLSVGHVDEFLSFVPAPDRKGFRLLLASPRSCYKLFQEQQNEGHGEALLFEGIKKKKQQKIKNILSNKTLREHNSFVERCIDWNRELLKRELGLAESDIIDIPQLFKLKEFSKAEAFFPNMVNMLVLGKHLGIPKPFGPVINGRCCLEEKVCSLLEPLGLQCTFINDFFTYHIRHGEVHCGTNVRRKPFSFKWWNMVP

Tests used:
[1] = target: T1, Protein-arginine deiminase type-4 (Homo sapiens, UniProt Q9UM07); test: Inhibition of PAD4 by ABPP-based assay
[2] = target: T1, Protein-arginine deiminase type-4; test: Inhibition of PAD4 measured by slope plot of Lineweaver-Burke analyses

Row | SMILES | IC50 [1] | Ki [2]
1 | C[C@H]1c2cccc(O)c2C(=O)C2=C(O)C3(O)C(=O)C(C(N)=O)=C(O)[C@@H](N(C)C)[C@@H]3[C@@H](O)[C@@H]21 (single isomer, unassigned) [DOXYCYCLINE] | 860 µM | 
2 | [H]/N=C(/N)N[C@H]1[C@H](O)[C@@H](O)[C@H](O[C@@H]2O[C@@H](C)[C@](O)(C=O)[C@H]2O[C@@H]2O[C@@H](CO)[C@H](O)[C@@H](O)[C@@H]2NC)[C@@H](N/C(N)=N\[H])[C@@H]1O (stereo in doubt) [STREPTOMYCIN] | 1800 µM | 560 µM
3 | CN(C)[C@@H]1C(O)=C(C(N)=O)C(=O)[C@@]2(O)C(O)=C3C(=O)c4c(O)ccc(Cl)c4[C@@](C)(O)[C@H]3C[C@@H]12 [CHLORTETRACYCLINE] |  | 540 µM
